Experimental data as given in PMC7852560 (Neuropsychopharmacology, 2020).

Tested on: Male Sprague Dawley rats
Assay: Conditioned avoidance response (CAR)
Type: in vivo
Details: ABM300 10 mg/kg, olanzapine 1 mg/kg i.p. daily
Protocol: Male Sprague Dawley rats (PD>63) were trained on a CAR protocol and responding following drug exposure was determined. […] Animals were trained to learn a house light (CS) as predictive of an avoidable 0.6mA scrambled foot shock (US). Each session consisted of 50 trials and animals avoided >70% of trials on the final acquisition session were tested for CAR during vehicle baseline, drug exposure, and re-emergence. In addition to CAR testing, both temperature and catalepsy were recorded in these animals (measure of potential CB1R agonism). Temperature: recorded on first day of drug exposure, prior to injection and 60-90-min. following drug exposure.

SMILES: CCc1c(-c2nnc(Nc3ccccc3)o2)[nH]c2ccc(Cl)cc12 [ABM300, 5-(5-chloro-3-ethyl-1H-indol-2-yl)-N-phenyl-1,3,4-oxadiazol-2-amine]
- escape failures in CAR: neither ABM300 nor olanzapine affected escape failures
- escape responding during CAR: but not ABM300, enhanced escape responding
